ChEMBL document CHEMBL6114960, “Discovery of First-in-Class FXR and HSD17B13 Dual Modulator for the Treatment of Metabolic Dysfunction-Associated Fatty Liver Disease” (J Med Chem, 2025)
Activity calls are given as the source filed them. No cut-off for these calls is given here.

Columns and labels:
Type in all cases: functional, organism-based
Mus musculus [1] = test: Anti-MASH activity in western diet and CCl4 co-induced male C57BL/6 mouse model assessed as reduction in liver steatosis at 20 mg/kg, po administered with high fat diet and sugar water for 12 weeks with subsequent CCl4 administration three times a week and measured after 4 weeks of compound administration via gavage starting from 9th week by H and E staining based analysis
Mus musculus [2] = test: Anti-MASH activity in western diet and CCl4 co-induced male C57BL/6 mouse model assessed as reduction in lobular inflammation in liver at 20 mg/kg, po administered with high fat diet and sugar water for 12 weeks with subsequent CCl4 administration three times a week and measured after 4 weeks of compound administration via gavage starting from 9th week by H and E staining based analysis
Mus musculus [3] = test: Anti-MASH activity in western diet and CCl4 co-induced male C57BL/6 mouse model assessed as reduction in collagen deposition in liver at 20 mg/kg, po administered with high fat diet and sugar water for 12 weeks with subsequent CCl4 administration three times a week and measured after 4 weeks of compound administration via gavage starting from 9th week by Masson staining based analysis
Mus musculus [4] = test: Anti-MASH activity in western diet and CCl4 co-induced male C57BL/6 mouse model assessed as reduction in ballooning in liver at 20 mg/kg, po administered with high fat diet and sugar water for 12 weeks with subsequent CCl4 administration three times a week and measured after 4 weeks of compound administration via gavage starting from 9th week by H and E staining based analysis
Mus musculus [5] = test: Anti-MASH activity in western diet and CCl4 co-induced male C57BL/6 mouse model assessed as reduction in hepatic stellate cell activation in liver at 20 mg/kg, po administered with high fat diet and sugar water for 12 weeks with subsequent CCl4 administration three times a week and measured after …; conditions: time 4.0 weeks
Mus musculus [6] = test: (§1) Anti-MASH activity in methionine-choline-deficient high fat diet induced male C57BL/6 mouse model assessed as improvement in liver steatosis at 20 mg/kg, po administered with MCD-HFD for 8 weeks followed by compound administration for 4 weeks via gavage starting from 5th week by H and E staining based analysis
Mus musculus [7] = test: as §1, with “reduction in vacuolation density” for “improvement”, “liver” for “liver steatosis”, “administration via gavage” for “administration”, “weeks” for “weeks via gavage”

CC[C@H]1[C@@H](O)[C@@H]2[C@H](CC[C@]3(C)[C@@H]([C@H](C)CCC(=O)O)CC[C@@H]23)[C@@]2(C)CC[C@@H](O)C[C@@H]12 [OBETICHOLIC ACID]
Activity (Mus musculus [1]): Active
Activity (Mus musculus [2]): Active
Activity (Mus musculus [3]): Active
Activity (Mus musculus [4]): Active
Activity (Mus musculus [5]): Active
Activity (Mus musculus [6]): Active; Modest Improvement In Steatosis Observed
Activity (Mus musculus [7]): Active
